Literature values in article PMC5916808 (Journal of medicinal chemistry, 2017).

Chains of the proteins cited; added tags and fusions are not shown. Residues count along the entry.
UniProt Q00961, 20-1237: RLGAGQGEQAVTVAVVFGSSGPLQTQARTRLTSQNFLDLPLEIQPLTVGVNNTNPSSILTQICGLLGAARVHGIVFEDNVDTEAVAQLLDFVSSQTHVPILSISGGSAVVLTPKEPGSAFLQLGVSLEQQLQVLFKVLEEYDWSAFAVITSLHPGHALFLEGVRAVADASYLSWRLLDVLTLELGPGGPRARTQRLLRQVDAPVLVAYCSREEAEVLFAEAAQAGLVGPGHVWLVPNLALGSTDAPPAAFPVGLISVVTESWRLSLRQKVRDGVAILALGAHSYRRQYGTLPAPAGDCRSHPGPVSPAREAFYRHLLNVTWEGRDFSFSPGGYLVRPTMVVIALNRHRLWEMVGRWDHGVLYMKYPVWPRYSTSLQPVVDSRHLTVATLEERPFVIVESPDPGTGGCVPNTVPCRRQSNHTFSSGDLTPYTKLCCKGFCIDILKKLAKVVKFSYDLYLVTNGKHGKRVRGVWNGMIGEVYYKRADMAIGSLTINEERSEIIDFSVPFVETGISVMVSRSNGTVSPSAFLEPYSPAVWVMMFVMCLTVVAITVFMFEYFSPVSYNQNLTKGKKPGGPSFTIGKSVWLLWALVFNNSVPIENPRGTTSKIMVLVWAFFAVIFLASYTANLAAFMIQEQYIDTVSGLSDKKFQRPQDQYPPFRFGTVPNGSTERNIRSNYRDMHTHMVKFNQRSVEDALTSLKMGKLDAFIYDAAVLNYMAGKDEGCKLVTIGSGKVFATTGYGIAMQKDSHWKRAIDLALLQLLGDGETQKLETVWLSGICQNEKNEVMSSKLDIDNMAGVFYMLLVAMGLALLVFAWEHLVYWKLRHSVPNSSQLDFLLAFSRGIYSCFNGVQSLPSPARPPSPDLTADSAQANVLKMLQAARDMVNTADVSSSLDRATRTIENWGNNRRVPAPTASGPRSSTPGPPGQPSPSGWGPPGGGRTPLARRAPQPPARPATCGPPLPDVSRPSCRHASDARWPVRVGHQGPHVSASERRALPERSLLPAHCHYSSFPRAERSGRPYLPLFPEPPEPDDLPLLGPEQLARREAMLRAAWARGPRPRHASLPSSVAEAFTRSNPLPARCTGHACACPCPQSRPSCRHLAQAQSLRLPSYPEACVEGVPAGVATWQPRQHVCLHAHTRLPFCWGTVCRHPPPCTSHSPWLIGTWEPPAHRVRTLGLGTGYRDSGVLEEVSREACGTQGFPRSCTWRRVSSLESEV
UniProt Q62645, 28-1323: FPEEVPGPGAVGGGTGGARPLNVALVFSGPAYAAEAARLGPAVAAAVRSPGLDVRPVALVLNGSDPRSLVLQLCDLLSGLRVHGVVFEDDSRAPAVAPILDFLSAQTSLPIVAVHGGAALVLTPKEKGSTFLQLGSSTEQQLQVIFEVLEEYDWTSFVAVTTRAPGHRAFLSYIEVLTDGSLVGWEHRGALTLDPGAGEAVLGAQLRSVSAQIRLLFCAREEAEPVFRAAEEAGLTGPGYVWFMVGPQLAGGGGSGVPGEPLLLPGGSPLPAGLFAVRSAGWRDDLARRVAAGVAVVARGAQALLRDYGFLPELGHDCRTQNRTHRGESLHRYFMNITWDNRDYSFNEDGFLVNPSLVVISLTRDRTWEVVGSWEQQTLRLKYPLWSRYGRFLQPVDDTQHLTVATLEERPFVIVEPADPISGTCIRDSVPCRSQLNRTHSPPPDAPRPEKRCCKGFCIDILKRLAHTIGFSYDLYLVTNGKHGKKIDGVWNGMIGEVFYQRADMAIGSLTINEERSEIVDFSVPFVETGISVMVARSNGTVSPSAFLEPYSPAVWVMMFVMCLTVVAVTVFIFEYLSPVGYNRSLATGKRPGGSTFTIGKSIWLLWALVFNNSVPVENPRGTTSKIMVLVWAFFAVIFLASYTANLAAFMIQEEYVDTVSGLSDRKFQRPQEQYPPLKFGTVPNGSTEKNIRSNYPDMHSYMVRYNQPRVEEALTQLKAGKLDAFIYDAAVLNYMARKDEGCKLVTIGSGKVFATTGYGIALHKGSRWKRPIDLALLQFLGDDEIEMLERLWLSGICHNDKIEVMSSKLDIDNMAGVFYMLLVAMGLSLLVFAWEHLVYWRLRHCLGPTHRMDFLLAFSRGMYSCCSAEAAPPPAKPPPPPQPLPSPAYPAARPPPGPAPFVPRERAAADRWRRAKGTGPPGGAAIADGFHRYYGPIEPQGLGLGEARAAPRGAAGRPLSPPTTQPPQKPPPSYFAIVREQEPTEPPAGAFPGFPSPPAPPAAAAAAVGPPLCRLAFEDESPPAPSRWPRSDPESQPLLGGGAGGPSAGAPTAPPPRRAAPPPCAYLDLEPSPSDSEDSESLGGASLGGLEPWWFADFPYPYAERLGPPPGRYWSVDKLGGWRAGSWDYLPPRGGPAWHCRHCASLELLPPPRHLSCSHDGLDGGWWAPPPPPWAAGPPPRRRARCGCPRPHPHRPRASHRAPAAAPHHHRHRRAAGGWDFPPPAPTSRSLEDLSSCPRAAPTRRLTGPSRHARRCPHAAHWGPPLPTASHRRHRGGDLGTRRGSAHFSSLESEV

Legend:
[1] = biological target: GluN1/GluN2C NMDA receptors (Rattus norvegicus, UniProt Q00961); conditions: read-out: EC50 GluN2C; previously published data; cited from earlier work
[2] = biological target: GluN1/GluN2D NMDA receptors (Rattus norvegicus, UniProt Q62645); conditions: read-out: EC50 GluN2D; previously published data; cited from earlier work

COc1ccc(OCC2c3ccc(OC)cc3CCN2C(=O)c2cccc(Cl)c2)cc1 (centres unmarked) [Compound 86]
EC50 [1]: 1300 nM | EC50 [2]: 1000 nM
